In this test the target is Urokinase-type plasminogen activator (Homo sapiens, UniProt P00749). The test is described as follows: In vitro inhibition of HWMT human urokinase Plasminogen activator.

In turn, `N=C(N)Nc1ccc(Cl)cc1` yielded a Ki of 6.7 µM.
For `NC(N)=Nc1ncc(Cl)cc1Br` the value was 4.83 µM.

Broadly, the Ki is the dissociation constant of the complex between target and ligand, obtained from inhibition or displacement. Lower therefore signals tighter binding.

The values above are taken from ChEMBL document CHEMBL1136034, “Selective urokinase-type plasminogen activator (uPA) inhibitors. Part 1: 2-Pyridinylguanidines” (Bioorg Med Chem Lett, 2002).
